Earlier results, collected in patent US9617577B2, “Bacillus pumilus bilirubin oxidase and applications thereof” (CENTRE NATIONAL DE LA RECHERCHE SCIENTIFIQUE, priority 2010, dated 2017).

Tested on: Bacillus subtilis CotA (BOD)
Details: read-out: KM (ABTS); same optimal activity conditions; Martins et al., 2008; cited from earlier work

CCn1c(=NN=c2sc3cc(S(=O)(=O)O)ccc3n2CC)sc2cc(S(=O)(=O)O)ccc21 [ABTS, 2,2′-azinobis(3-ethylbenzothiazoline-6-sulphonic acid)]
Km: 124 µM
